Here are results for one compound from ChEMBL document CHEMBL4387751, “Development of substituted pyrido[3,2-d]pyrimidines as potent and selective dihydrofolate reductase inhibitors for pneumocystis pneumonia infection” (Bioorg Med Chem Lett, 2019).

The data set deals with DHFR (human versus Pneumocystis jirovecii). Briefly: Selectivity ratio of IC50 for inhibition of recombinant human DHFR using 18 uM DHFA as substrate to IC50 for inhibition of Pneumocystis jirovecii DHFR using 18 uM DHFA as substrate. The settings on record: recombinant human DHFR and Pneumocystis jirovecii DHFR, probe DHFA (substrate), read-out: Ratio IC50. Format: toxicity.

Turning to `COc1ccc(Nc2cnc3nc(N)nc(N)c3c2)cc1`, the selectivity ratio was found to be 9.
